For the assay, the target named is human epidermal growth factor receptor 2 (HER-2) (human) (UniProt P04626). Put plainly: cell-based or functional assay.

The record followed here is patent US20110243927A1.

For the substance trastuzumab (…, Genentech) (antibody), the % Inhibition of cell growth, SKBr3 cells (HER-2+), SRB assay, 5 days, trastuzumab alone at 0.08 µg/ml worked out at 31.2%; the % Inhibition of cell growth, SKBr3 cells (HER-2+), SRB assay, 5 days, trastuzumab alone at 0.4 µg/ml is 50.7%; the % Inhibition of cell growth, SKBr3 cells (HER-2+), SRB assay, 5 days, trastuzumab alone at 10 µg/ml was 53.9%; the % Inhibition of cell growth, SKBr3 cells (HER-2+), SRB assay, 5 days, trastuzumab alone at 50 µg/ml came out at 55.6%.
